Laboratory results from ChEMBL document CHEMBL1140442, “Potent cannabinergic indole analogues as radioiodinatable brain imaging agents for the CB1 cannabinoid receptor” (J Med Chem, 2005).

Amino acid sequences for entries named in this document (tags omitted). A change or cut given only in a name is not applied to a line headed by its entry.
UniProt P47936: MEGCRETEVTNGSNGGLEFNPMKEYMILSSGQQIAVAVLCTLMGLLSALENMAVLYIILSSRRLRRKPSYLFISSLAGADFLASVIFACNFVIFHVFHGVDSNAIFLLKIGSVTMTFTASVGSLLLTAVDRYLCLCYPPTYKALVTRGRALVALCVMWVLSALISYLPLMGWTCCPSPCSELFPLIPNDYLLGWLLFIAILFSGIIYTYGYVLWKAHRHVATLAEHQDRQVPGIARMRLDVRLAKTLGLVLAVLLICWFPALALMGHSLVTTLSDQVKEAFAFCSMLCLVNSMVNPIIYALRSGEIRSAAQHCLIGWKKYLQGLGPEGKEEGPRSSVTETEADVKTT
UniProt P20272, whole entry: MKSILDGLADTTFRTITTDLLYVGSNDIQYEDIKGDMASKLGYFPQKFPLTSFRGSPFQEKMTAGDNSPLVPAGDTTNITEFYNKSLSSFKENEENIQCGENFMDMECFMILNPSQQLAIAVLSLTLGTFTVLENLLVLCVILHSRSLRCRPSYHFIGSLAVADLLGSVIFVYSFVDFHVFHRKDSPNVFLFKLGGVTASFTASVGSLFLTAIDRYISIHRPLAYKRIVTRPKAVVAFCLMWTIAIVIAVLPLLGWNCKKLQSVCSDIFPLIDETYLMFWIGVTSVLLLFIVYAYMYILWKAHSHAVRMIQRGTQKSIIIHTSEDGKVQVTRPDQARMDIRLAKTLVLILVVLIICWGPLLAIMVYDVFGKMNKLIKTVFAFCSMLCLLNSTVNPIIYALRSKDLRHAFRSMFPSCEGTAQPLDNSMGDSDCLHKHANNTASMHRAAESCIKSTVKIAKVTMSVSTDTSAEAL

Columns and labels:
Cannabinoid receptor 2 = Cannabinoid receptor 2 (Mus musculus, UniProt P47936); assay: Binding affinity towards mouse spleen cannabinoid receptor 2 using [3H]CP-55940; assay type: tissue-based
Cannabinoid receptor 1 = Cannabinoid receptor 1 (Rattus norvegicus, UniProt P20272); assay: Binding affinity towards rat forebrain cannabinoid receptor 1 using [3H]CP-55940

Structure (SMILES) | Ki (Cannabinoid receptor 2) [nM] | Ki (Cannabinoid receptor 1) [nM]
CN1CCCC[C@H]1Cn1cc(C(=O)c2ccccc2I)c2ccccc21 | 580 | 
CN1CCCCC1Cn1cc(C(=O)c2ccccc2I)c2ccccc21 (centres undefined) | 2.9 | 2.8
CN1CCCC[C@@H]1Cn1cc(C(=O)c2ccccc2I)c2ccccc21 | 2.2 | 
